From ChEMBL document CHEMBL1155685, “Antiproliferative triterpene saponins from Trevesia palmata” (J Nat Prod, 2000)

Test system: HEK293
Assay: Antiproliferative activity against HEK293 cells assessed as reduction of cell growth after 72 hrs by MTT method
Format: cell-based, Homo sapiens

Sc1ncnc2nc[nH]c12 [MERCAPTOPURINE ANHYDROUS]
IC50: 7 nM
